Antibody variant affinities, Ab-91 heavy chain, assay 2

Source: Engelhart et al. 2022 (doi:10.1038/s41597-022-01779-4), MIT Lincoln Laboratory and A-Alpha Bio; data file from the FLAb repository.

All variants were tested on one target, the spike HR2 peptide PDVDLGDISGINAS (SARS-CoV-2).

Each scFv is VL, a 15-residue (Gly4Ser)3 linker, VH, as in the parent Ab-91, and differs from it in the CDRs of the heavy chain only.
VL: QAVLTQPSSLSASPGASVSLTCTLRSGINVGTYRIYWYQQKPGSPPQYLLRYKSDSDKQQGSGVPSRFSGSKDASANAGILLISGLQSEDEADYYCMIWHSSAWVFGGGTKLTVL
VH: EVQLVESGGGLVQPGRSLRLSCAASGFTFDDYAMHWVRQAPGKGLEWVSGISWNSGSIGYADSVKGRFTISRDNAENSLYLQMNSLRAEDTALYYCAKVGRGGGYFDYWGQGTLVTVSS

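Phage display of a naive human antibody library on the peptide gave the parent. Library AAYL51 holds single substitutions and randomly drawn double and triple substitutions in the CDRs. The assay is AlphaSeq: two haploid yeast populations carry antibody and antigen on their surface. Binding brings cells together so that they mate, and sequencing counts the barcode pairs among the diploids. A regression on co-assayed BCL2-family reference pairs converts the normalised counts of each replicate to an apparent Kd. The assay was run in three technical replicates.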

Positions count from residue 1 of the parent VH; G26L puts L in place of G. Scale: log10 of Kd in nM, estimated from mating counts; low values are strong binders. "ND" means that the variant was in the library but no mating with the target was seen in that replicate; the authors take this as a sign of poor binding, and no number exists. Parent in this assay: reference entry 1.86, copy in this library 0.88.

changes | log10 Kd, replicates | control signals
G26L+F29R+Y32W | 4.49 / 4.36 / 5.86 | 9/9 (5.29)
Y32L+I58M+D107A | ND / ND / ND | 0/9
Y32M+G50K+F106W | ND / ND / ND | 0/9
K65Y+G100E+Y105V | 3.71 / ND / ND | 2/9 (4.35)
S55W+A61P+S63V | 4.29 / 5.20 / 5.34 | 3/9 (4.51)
F29Q+D31H+S55L | ND / ND / ND | 1/9 (4.31)
A33N+N54L+Y105N | 5.14 / 5.59 / 4.71 | 7/9 (5.45)
K65T+V99M+G102N | ND / ND / ND | 0/9
D30W+D31N+N54T | ND / ND / ND | 1/9 (2.99)
S55H+G56Q+V99Q | ND / ND / ND | 1/9 (4.22)
T28E+W53Y+R101G | 2.18 / 2.33 / 1.87 | 7/9 (4.51)
I51W+F106E | 3.61 / ND / ND | 1/9 (3.67)
D31P+G56Y+G104S | 4.21 / 5.30 / ND | 1/9 (4.38)
A33H+W53Q+G104L | ND / ND / ND | 0/9
G26Y+F27P | ND / ND / ND | 0/9
M34W+I58M+V99F | ND / ND / ND | 2/9 (5.18)
N54A+S57R+V99R | ND / ND / ND | 0/9
S55K+Y60E+G104Y | ND / ND / ND | 0/9
G26F+F29S+Y60G | 6.07 / 3.92 / ND | 5/9 (4.51)
G50I+I51S+G102T | ND / 5.43 / 3.76 | 2/9 (3.58)
F29W+W53S+S63V | 4.73 / ND / ND | 5/9 (5.05)
D30A+M34S+A61F | ND / 4.30 / ND | 0/9
T28M+S55L+R101Q | ND / 3.13 / ND | 0/9
S55A+G59L+R101M | ND / ND / ND | 0/9
F29R+G104S | ND / ND / ND | 2/9 (5.10)
F29M+R101Q+G104V | 3.42 / 3.85 / ND | 3/9 (4.32)
Y60P+F106T+D107M | 4.70 / 5.34 / ND | 3/9 (4.31)
D30P+A33S+N54H | 1.38 / 1.33 / 0.98 | 4/9 (5.04)
G56M+I58S+R101N | 1.14 / 1.18 / 0.17 | 2/9 (4.30)
D30Y+H35A+S52N | ND / ND / ND | 0/9
S52C+G103R+F106L | ND / ND / ND | 3/9 (3.83)
I58S+V64N+V99Q | ND / 5.10 / ND | 2/9 (5.09)
A33W+N54A+R101P | ND / ND / 3.71 | 1/9 (3.67)
S57Q+G59L | ND / ND / ND | 0/9
G26I+M34G+G100S | 5.52 / 4.68 / 5.58 | 6/9 (4.89)
G26L+Y32L+I58V | ND / ND / ND | 1/9 (2.43)
S55Q+G56K+V64C | ND / ND / ND | 0/9
D31L+Y105M+F106Q | 1.07 / 0.68 / 0.22 | 1/9 (3.38)
F27Y+Y32T+D107Q | 5.25 / 4.63 / ND | 8/9 (4.73)

Background: pairings of library AAYL51 with three empty control strains gave a value in 21% of cases (median 4.54, 5th percentile 3.26). Values in that range, when seen in few replicates, are hard to tell from nonspecific mating. The control count says in how many pairings with the empty strains this scFv gave a signal, with their mean in brackets.